Assay results taken from ChEMBL document CHEMBL6096656, “Structure-activity relationship studies of Imidazo[1',2':1,6]pyrido[2,3-d]pyrimidine derivatives to develop selective FGFR inhibitors as anticancer agents for FGF19-overexpressed hepatocellular carcinoma” (Eur J Med Chem, 2025).

Amino acid sequences for entries named in this document (tags omitted).
Fibroblast growth factor receptor 4 (Homo sapiens), P22455, UniProt P22455, whole entry V550L: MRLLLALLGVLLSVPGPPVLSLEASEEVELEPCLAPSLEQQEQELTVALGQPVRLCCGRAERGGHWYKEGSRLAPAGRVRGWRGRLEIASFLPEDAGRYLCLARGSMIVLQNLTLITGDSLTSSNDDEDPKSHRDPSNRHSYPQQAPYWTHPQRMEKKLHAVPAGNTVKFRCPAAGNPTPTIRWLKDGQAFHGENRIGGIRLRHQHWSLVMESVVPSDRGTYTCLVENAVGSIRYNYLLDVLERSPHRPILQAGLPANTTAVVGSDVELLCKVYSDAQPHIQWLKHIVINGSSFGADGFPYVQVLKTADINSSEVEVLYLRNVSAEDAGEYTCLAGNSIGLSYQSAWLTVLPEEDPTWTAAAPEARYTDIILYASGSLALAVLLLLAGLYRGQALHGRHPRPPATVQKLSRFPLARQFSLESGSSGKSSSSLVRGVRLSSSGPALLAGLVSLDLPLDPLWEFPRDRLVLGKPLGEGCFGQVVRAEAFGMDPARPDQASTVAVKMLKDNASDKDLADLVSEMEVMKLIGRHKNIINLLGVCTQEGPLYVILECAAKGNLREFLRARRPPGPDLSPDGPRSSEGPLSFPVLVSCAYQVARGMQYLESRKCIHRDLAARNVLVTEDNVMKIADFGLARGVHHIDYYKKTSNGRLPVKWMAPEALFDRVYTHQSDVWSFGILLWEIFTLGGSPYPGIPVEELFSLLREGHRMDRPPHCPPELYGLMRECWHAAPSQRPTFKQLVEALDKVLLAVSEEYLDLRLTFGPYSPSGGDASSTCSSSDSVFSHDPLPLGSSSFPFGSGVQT
UniProt P11362, whole entry, looked up: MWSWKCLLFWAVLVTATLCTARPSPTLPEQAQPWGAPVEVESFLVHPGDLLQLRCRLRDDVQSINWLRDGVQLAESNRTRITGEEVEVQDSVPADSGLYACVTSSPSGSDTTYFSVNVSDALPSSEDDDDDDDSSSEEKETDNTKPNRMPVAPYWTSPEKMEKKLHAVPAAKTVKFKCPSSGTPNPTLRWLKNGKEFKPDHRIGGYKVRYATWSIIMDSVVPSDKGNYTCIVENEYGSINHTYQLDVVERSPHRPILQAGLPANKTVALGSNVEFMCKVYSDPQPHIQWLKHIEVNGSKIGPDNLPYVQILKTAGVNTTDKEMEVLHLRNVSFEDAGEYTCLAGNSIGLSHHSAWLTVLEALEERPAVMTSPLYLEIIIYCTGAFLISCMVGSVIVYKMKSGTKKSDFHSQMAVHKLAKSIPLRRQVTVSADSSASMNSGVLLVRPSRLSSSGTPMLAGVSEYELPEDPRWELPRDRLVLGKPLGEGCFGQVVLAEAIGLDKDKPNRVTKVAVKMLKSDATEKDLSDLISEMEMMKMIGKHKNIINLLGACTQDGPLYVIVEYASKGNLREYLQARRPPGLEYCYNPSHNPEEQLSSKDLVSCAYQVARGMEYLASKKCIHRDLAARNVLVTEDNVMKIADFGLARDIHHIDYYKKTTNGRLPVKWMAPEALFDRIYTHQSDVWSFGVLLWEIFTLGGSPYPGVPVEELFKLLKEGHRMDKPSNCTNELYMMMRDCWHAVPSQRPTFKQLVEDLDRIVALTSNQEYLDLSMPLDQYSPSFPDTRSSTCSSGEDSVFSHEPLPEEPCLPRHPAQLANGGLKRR

Assays:
[1] = test system: Fibroblast growth factor receptor 4 (Homo sapiens), P22455 [V550L]; details: dose 500.0 nM
[2] = test system: Fibroblast growth factor receptor 4 (Homo sapiens), P22455 [V550L]; details: dose 50.0 nM
[3] = molecular target: Fibroblast growth factor receptor 1 (Homo sapiens) (UniProt P11362); details: dose 10.0 nM

C=CC(=O)N[C@H]1CCOC[C@H]1Nc1ncc2cc(-c3c(Cl)c(OC)cc(OC)c3Cl)ccc2n1 [FISOGATINIB]
inhibition [1]: 17% | inhibition [2]: 0% | inhibition [3]: 0%
